# The list is not random: actives were taken first. Their share in the collection is about 4.2%.
# MC4R ag barr – activates human MC4R beta-arrestin recruitment; P32245; U2OS MC4R beta-arrestin complementation, luminescence; percent of melanotan II response, DMSO zero; activation, % at 8.9 µM; hit rate 0.98% among 360,000; AID 540308;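 active means activation above a per-plate cutoff, the mean activation of sample wells on that plate plus 3 SD, cut at about 8% in these data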
# MC4R antag cAMP – blocks human MC4R cAMP signaling; hit rate 0.48% among 360,000; P32245; MC4R-expressing cells, MTII-stimulated cAMP, LANCE TR-FRET; AID 540295; inhibition, % at 6.5 µM;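 active means inhibition above its plate's cutoff, the mean of tested wells on that plate plus 3 SD, cut at about 29% in these data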;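 further: 0% = Melanotan II alone and 100% = Melanotan II plus saturating MCL0020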
#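 System: U2OS-MC4R stable cell line; Technique: Eu-cAMP/anti-cAMP TR-FRET, emission 671 nm; Repeats: single well per compound; Also added: Melanotan II; Dosing: one concentration, 6.5 µM nominal; Schedule: 30-min compound, 1-h challenge, 1-h detection, room temperature.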
# ALR inh – human ALR oxidase inhibition via reduced H2O2; P55789; purified ALR, DTT oxidation, H2O2 HRP-luminol luminescence; inhibition, % (concentration not given with the values); actives 3.8% (n = 290,000); AID 485317;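 active = mean and each replicate at 75% or more; inconclusive = only one of the two met; inactive = neither met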;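 note: stock transfer was 7.5 nL into about 7.5 µL; 0% = neutral wells and 100% = wells with inactivated enzyme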
# HDAC3 inh – inhibitors of human histone deacetylase 3; O15379; recombinant HDAC3, fluorogenic peptide/trypsin coupled, fluorescence; inhibition, % at 8.3 µM; hit rate 0.15% among 320,000; in the data active means inhibition above about 26%, passing the limit was not always enough
# NALP1 yeast inh – NALP1 inhibition; S. cerevisiae NALP1/ASC/caspase-1 growth, X-gal OD620, 72 h; hit rate 0.61% among 280,000; inhibition, % at 10 µM; AID 2071; in the data active means inhibition mostly above about 24%, no sharp cut-off; inactive means mostly below about 32%
# Yeast UUG start – yeast start codon fidelity modulation | S. cerevisiae UUG-firefly luciferase reporter, luminescence/redox ratio | activity score, % at 18.7 µM | 0.13% of 350,000 active | AID 602363;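 active means replicate mean at a twofold rise or more, about +100% in these data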;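 further: firefly luciferase made from a UUG start codon reports start codon fidelity; reporter light over untreated wells divided by growth signal over untreated wells; some hits fall short of that in this replicate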
# MC4R barr ag – human MC4R beta-arrestin agonism confirmation; shares compounds with MC4R ag barr; U2OS MC4R beta-arrestin recruitment, luminescence; scaled DMSO 0%, Melanotan II 100%; activation, % at 8.9 µM; hit rate 31% among 2,400;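 active means mean activation across replicates above the hit cutoff set in the earlier primary screen, cut at about 8% in these data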
# MOR DOR agonist – counter-screen for MC4R agonists: agonists of mu-delta opioid heterodimer; AID 602194; shares compounds with MC4R ag barr; U2OS PathHunter beta-arrestin, beta-gal luminescence; percent of deltorphin B response, DMSO zero; hit rate 5.8% among 2,400; activation, % at 9.2 µM;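 active means mean activation across replicates exceeds the hit threshold derived in the earlier primary screen, cut at about 18% in these data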;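 further: 100% = deltorphin B at 0.9 µM final and 0% = DMSO alone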
# An asterisk follows results filed as active; . = no result.
# Screens by letter – A = MC4R ag barr; B = MC4R antag cAMP; C = ALR inh; D = HDAC3 inh; E = NALP1 yeast inh; F = Yeast UUG start; G = MC4R barr ag; H = MOR DOR agonist
canonical_smiles: O=C(C[C@H]1CC[C@@H]2[C@H](COC[C@H](O)CN2S(=O)(=O)c2ccccc2)O1)NCCN1CCCCC1
  A: .; B: .; C: .; D: .; E: .; F: -3; G: .; H: .
canonical_smiles: CCc1ccc(OCc2nnc(SCC(=O)N3CCN(c4ccccc4)CC3)o2)cc1
  A: 17*; B: 9; C: -10; D: 2; E: -1; F: -3; G: 6; H: 20*
canonical_smiles: Cc1cc(C)cc(OCc2nnc(SCC(=O)N3CCN(c4ccccc4)CC3)o2)c1
  A: 10.0*; B: 0; C: 0; D: 9; E: 1; F: -21; G: 4; H: 12
canonical_smiles: Cc1ccc(S(=O)(=O)N(C)C[C@@H]2Oc3c(NC(=O)NC4CCCCC4)cccc3C(=O)N([C@H](C)CO)C[C@@H]2C)cc1
  A: .; B: .; C: .; D: .; E: .; F: 25; G: .; H: .
canonical_smiles: COC1=Cc2c(ccc3ccc(=O)oc23)OC1(C)C
  A: -2; B: 9; C: 0; D: 0; E: 2; F: -14; G: .; H: .
canonical_smiles: CC1(C)Oc2ccc3ccc(=O)oc3c2/C(=C/Nc2ccc(O)cc2)C1=O
  A: 11*; B: 24; C: 20; D: -8; E: -8; F: -9; G: 23*; H: 5
canonical_smiles: CCCN1C[C@H](C)[C@@H](OC)CN(C)C(=O)c2ccc(NC(=O)C3CC3)cc2OC[C@H]1C
  A: .; B: .; C: .; D: .; E: .; F: 16; G: .; H: .
canonical_smiles: O=C(NCc1ccccc1)N1CCN(c2ccc(F)cc2)CC1
  A: -1; B: 13; C: 0; D: -3; E: 23; F: -14; G: .; H: .
canonical_smiles: O=C(NCc1ccccc1)N1CCN(c2ccc(Cl)c(Cl)c2)CC1
  A: 22*; B: 2; C: 0; D: 1; E: 10; F: -16; G: 1; H: 5
canonical_smiles: O=C(CC1c2ccccc2Oc2ccccc21)Nc1ccccc1F
  A: 11*; B: 4; C: -2; D: -8; E: 21; F: -10; G: 5; H: 6

# Quoted at random: 3 entries already listed, in no set order.
# Screens by letter – A = MC4R ag barr; B = MC4R antag cAMP; C = ALR inh; D = HDAC3 inh; E = NALP1 yeast inh; F = Yeast UUG start; G = MC4R barr ag; H = MOR DOR agonist
canonical_smiles: O=C(NCc1ccccc1)N1CCN(c2ccc(F)cc2)CC1
  A: -1; B: 13; C: 0; D: -3; E: 23; F: -14; G: .; H: .
canonical_smiles: COC1=Cc2c(ccc3ccc(=O)oc23)OC1(C)C
  A: -2; B: 9; C: 0; D: 0; E: 2; F: -14; G: .; H: .
canonical_smiles: O=C(NCc1ccccc1)N1CCN(c2ccc(Cl)c(Cl)c2)CC1
  A: 22*; B: 2; C: 0; D: 1; E: 10; F: -16; G: 1; H: 5

# (further entries)
# Screens by letter – A = MC4R ag barr; B = MC4R antag cAMP; C = ALR inh; D = HDAC3 inh; E = NALP1 yeast inh; F = Yeast UUG start; G = MC4R barr ag; H = MOR DOR agonist
canonical_smiles: O=C(CC1c2ccccc2Oc2ccccc21)Nc1ccccc1C(F)(F)F
  A: 17*; B: 5; C: -8; D: 2; E: 27; F: .; G: 4; H: 8
canonical_smiles: C[C@@H]1CN([C@@H](C)CO)C(=O)c2cc(NC(=O)Nc3ccc(F)cc3)ccc2O[C@@H](C)CCCCO[C@@H]1CN(C)C(=O)CCCN(C)C
  A: .; B: .; C: .; D: .; E: .; F: 11; G: .; H: .
canonical_smiles: C=CCN1C(=O)/C(=C2/Sc3ccc(OC)cc3N2C)SC1=Nc1ccccc1
  A: -3; B: 1; C: -6; D: -4; E: -8; F: .; G: .; H: .
canonical_smiles: CCN1C(=O)/C(=C2/Sc3ccc(OC)cc3N2C)SC1=Nc1cccc(O)c1
  A: 14*; B: 14; C: -3; D: -4; E: 12; F: -19; G: 17*; H: 12
canonical_smiles: CN1CCN(C(=O)C[C@H]2CC[C@@H]3[C@H](COC[C@@H](O)CN3S(=O)(=O)c3cccc(Cl)c3)O2)CC1
  A: .; B: .; C: .; D: .; E: .; F: -4; G: .; H: .
canonical_smiles: CC/C(=N\n1nnnc1Nc1ccccc1)c1ccccc1
  A: -1; B: 1; C: .; D: -1; E: 16; F: 7; G: .; H: .
canonical_smiles: CC(C)c1ccc(/C=N/n2nnnc2Nc2ccccc2)cc1
  A: 11*; B: 13; C: -1; D: -3; E: 14; F: -9; G: 15*; H: 7
canonical_smiles: CCCC#Cc1cnc2c(c1)C(=O)N([C@H](C)CO)C[C@H](C)[C@H](CN(C)S(C)(=O)=O)O2
  A: .; B: .; C: .; D: .; E: .; F: 6; G: .; H: .
canonical_smiles: COc1ccccc1C(=O)N1C[C@H]2[C@@H](c3ccccc31)[C@@H](CO)N2C(=O)C1CCCCC1
  A: .; B: .; C: .; D: .; E: .; F: -5; G: .; H: .
canonical_smiles: Cc1noc(C)c1CSc1nc2sc(C)c(C)c2c(=O)n1-c1ccccc1
  A: 11*; B: 7; C: 0; D: -3; E: 3; F: -7; G: -2; H: 5
canonical_smiles: Cc1ccc2c(c1)c1c(n2CC(O)Cn2c(C)nc3ccccc32)CCCC1 (stereo not drawn)
  A: 9.6*; B: -2; C: .; D: 14; E: 17; F: -5; G: 4; H: 8
canonical_smiles: CC(C)(C)NC(=O)CN(C(=O)CCC(=O)Nc1nccs1)c1ccccc1F
  A: 12*; B: 10; C: .; D: .; E: .; F: -26; G: 0; H: 2
canonical_smiles: Cc1cc(C)cc(NC(=O)CSc2cc(C(=O)c3nccn3C)c3ccccc3n2)c1
  A: 9.8*; B: 14; C: -1; D: 6; E: 36; F: .; G: 3; H: 8
canonical_smiles: C[C@H](CO)N1C[C@H](C)[C@H](CN(C)Cc2ccc3c(c2)OCO3)Oc2ccc(NC(=O)CCCCCC(=O)Nc3ccccc3N)cc2CC1=O
  A: .; B: .; C: .; D: .; E: .; F: -2; G: .; H: .
canonical_smiles: O=C(CCN1C(=O)/C(=C/C=C/c2ccccc2)SC1=S)Nc1cccnc1
  A: 12*; B: -7; C: -30; D: -1; E: 33; F: .; G: 32*; H: 13
canonical_smiles: O=C(CCN1C(=O)/C(=C/C=C/c2ccccc2)SC1=S)Nc1ccccn1
  A: 34*; B: 14; C: -4; D: 4; E: -1; F: .; G: 22*; H: 12
canonical_smiles: Cc1ccccc1OCC(=O)N/N=C/c1ccco1
  A: 0; B: 2; C: 33; D: -1; E: 9; F: -14; G: .; H: .
canonical_smiles: COc1ccc(OCC(=O)N/N=C/C(C)=C/c2ccco2)c(Br)c1
  A: 19*; B: 18; C: -5; D: -5; E: 0; F: -14; G: -1; H: 8
canonical_smiles: CC(C)CCCCCCCCCCCCC(=O)NCC(=O)NC1C(C)OC(Nc2ncnc3nc[nH]c23)C(O)C1O (stereo not drawn)
  A: 16*; B: 7; C: .; D: .; E: .; F: .; G: 11*; H: 28*
canonical_smiles: OC[C@H]1[C@H](c2ccc(C#CC3(O)CCCC3)cc2)[C@@H]2CN(Cc3cccnc3)CCCCN12
  A: .; B: .; C: .; D: .; E: .; F: -8; G: .; H: .
canonical_smiles: Cc1ccc(CNC(=O)c2ccc(COc3ccccc3)cc2)cc1
  A: 13*; B: -1; C: .; D: 6; E: 35; F: .; G: -1; H: 4
canonical_smiles: O=C(NCc1ccncc1)c1ccc(OCc2ccccc2)cc1
  A: -2; B: 5; C: .; D: 1; E: .; F: -14; G: .; H: .
canonical_smiles: CCSc1nnc(NC(=O)C2CC2c2ccccc2)s1 (stereo not drawn)
  A: 15*; B: -5; C: -11; D: 1; E: 28; F: .; G: 6; H: 7
canonical_smiles: CC(C)(C)c1cc(C(=O)Nc2ccc(F)cc2)n(Cc2ccc(F)cc2)n1
  A: 9.6*; B: 4; C: -1; D: 10; E: .; F: -3; G: 5; H: 11
canonical_smiles: O=[N+]([O-])c1cc(S(=O)(=O)N2CCCC2)ccc1N/N=C/c1cccs1
  A: 20*; B: -7; C: -6; D: 4; E: .; F: -5; G: 2; H: 4
canonical_smiles: CCCc1cn(CC[C@H]2CC[C@@H](NC(=O)Cc3cccnc3)[C@@H](CO)O2)nn1
  A: .; B: .; C: .; D: .; E: .; F: -11; G: .; H: .
canonical_smiles: O=C(Cc1cccs1)Nc1nnc(SCc2cccc3ccccc23)s1
  A: 12*; B: 3; C: 2; D: 0; E: 11; F: -17; G: 3; H: 3

# Screening data from PubChem BioAssay.
